From PMC11650849, “Brain endothelial permeability, transport, and flow assessed over 10 orders of magnitude using the in situ brain perfusion technique” (Fluids and Barriers of the CNS, 2024) come the findings set out here.

The conditions of the data set: rat, in vivo, pH 7.4.

As to `COc1ccc2c(c1)c(CC(=O)O)c(C)n2C(=O)c1ccc(Cl)cc1` [Indomethacin], the “Log PoS” value was 1.16.
